# Data from PubChem BioAssay AID588855 (National Center for Advancing Translational Sciences (NCATS), 2011).
# The entries are a selection whose mix differs from that of the whole data set. Records with an inconclusive call do not appear. Calls of active or inactive are those of the source. The call rests on the fitted dose curve; in most records, active means well fitted inhibition curve with a large enough effect; inconclusive means small, poorly fitted or top-dose-only effect; inactive means no such curve, though single readings can be large or run the other way.
# Experiment: qHTS for Inhibitors of TGF-b; further: nearly all actives have a fitted effect of over 65% in size
# Conditions: HepG2 CAGA-GFP TGF-b/SMAD3 reporter, GFP fluorescence, 18 h, TGF-beta stimulated, 500 pg/mL final; at 46.1 µM (top of the series)
# On the % scale 0 is the no-effect control and ±100 the full control effect.
row,SMILES,"activity, negative = inhibition"
1,CCC(=O)N(c1ccccc1)C1(COC)CCN(CCn2nnn(CC)c2=O)CC1,inactive: 2.05%
2,CCC(=O)N(c1ccccc1)C1(COC)CCN(CCc2cccs2)CC1,inactive: 4.06%
